Tests used:
[1] = target: N-129 (Homo sapiens, UniProt P03372, E203W/H216G/Q214A); conditions: ATL8/PAL-LUC, 4 ng expression plasmid, 10 nM OHT
[2] = target: ER 4.3 (Homo sapiens, UniProt P03372, E203W/G215R/G400V/H216P/N217T/Q214V); conditions: ATL4/PAL-LUC, 10 nM OHT
[3] = target: ER3M (Homo sapiens, UniProt P03372, E203W/G400V/H216G/Q214A); conditions: ATL4/PAL-LUC, 10 nM OHT
[4] = target: C-79 (Homo sapiens, UniProt P03372, E203W/H216G/Q214A); conditions: ATL8/PAL-LUC, 4 ng expression plasmid, 10 nM OHT
Description: These fragments were digested with KpnI and BamHI and then purified from agarose gels. […] To create C-129, this ER fragment was digested with XbaI and KpnI and then cloned together with the DNA fragment containing 129 amino acids of VP16 into 5.9 kb vector generated by digestion of CMV-hER with XbaI and BamHI. The same strategy was adopted to create C-79 using the DNA fragment containing 79 amino acids of VP16. Therefore, the expression of these chimeras is driven by the same CMV promoter as that of ER-3M. […] The amplified PCR product was digested with NcoI and NotI. […] This fragment and the NcoI/NotI PCR fragment were then inserted together into the 4.3 kb vector, pGL3-ATL8/PAL-LUC, which was created by digesting ATL8/PAL-LUC completely with NcoI and partially with XbaI so that the luciferase gene was replaced by N-79.

By UniProt entry, the sequences of proteins in these tests, tags left out. Chains listed by the source or under a name are the forms on record and can include a tag or linker.
N-129 (Homo sapiens, UniProt P03372, E203W/H216G/Q214A), UniProt P03372, with tags, fused parts or gaps E203W/Q214A/H216G: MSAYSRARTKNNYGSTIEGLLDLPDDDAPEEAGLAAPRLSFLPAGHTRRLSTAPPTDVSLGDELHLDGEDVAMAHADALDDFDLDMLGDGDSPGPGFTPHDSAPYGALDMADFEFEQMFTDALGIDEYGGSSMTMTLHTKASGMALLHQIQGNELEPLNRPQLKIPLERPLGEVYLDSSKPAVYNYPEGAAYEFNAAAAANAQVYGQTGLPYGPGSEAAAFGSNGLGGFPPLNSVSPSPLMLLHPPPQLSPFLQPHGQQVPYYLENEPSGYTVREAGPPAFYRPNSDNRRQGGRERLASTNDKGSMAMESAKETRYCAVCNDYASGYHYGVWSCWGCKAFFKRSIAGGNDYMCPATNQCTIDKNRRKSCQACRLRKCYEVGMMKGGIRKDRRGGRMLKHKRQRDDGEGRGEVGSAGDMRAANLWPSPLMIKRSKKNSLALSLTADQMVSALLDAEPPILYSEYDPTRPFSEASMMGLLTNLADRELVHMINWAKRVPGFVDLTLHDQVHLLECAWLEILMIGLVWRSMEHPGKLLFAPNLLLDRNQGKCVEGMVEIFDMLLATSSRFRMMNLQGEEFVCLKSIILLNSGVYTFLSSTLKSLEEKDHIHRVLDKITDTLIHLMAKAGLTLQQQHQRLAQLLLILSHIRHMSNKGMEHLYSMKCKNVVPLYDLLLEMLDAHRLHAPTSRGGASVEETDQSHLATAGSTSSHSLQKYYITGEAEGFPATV
UniProt P03372, whole entry E203W/Q214V/G215R/H216P/N217T/G400V: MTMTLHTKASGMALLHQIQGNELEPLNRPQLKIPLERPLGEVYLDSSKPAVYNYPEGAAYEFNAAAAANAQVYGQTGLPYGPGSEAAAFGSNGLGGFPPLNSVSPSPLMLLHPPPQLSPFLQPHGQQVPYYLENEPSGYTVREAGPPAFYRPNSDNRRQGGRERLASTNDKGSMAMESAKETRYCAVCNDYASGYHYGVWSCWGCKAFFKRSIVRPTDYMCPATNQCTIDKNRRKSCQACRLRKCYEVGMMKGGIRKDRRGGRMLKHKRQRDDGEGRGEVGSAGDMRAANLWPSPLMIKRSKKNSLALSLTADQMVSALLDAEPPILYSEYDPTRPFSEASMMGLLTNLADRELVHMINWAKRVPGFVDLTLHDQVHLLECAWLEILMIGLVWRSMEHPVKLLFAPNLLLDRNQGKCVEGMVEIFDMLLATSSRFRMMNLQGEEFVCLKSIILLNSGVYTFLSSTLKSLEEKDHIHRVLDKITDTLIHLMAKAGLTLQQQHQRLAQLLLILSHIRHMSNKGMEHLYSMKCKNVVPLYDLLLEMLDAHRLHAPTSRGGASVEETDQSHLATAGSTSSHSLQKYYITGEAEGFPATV
UniProt P03372, whole entry E203W/Q214A/H216G/G400V: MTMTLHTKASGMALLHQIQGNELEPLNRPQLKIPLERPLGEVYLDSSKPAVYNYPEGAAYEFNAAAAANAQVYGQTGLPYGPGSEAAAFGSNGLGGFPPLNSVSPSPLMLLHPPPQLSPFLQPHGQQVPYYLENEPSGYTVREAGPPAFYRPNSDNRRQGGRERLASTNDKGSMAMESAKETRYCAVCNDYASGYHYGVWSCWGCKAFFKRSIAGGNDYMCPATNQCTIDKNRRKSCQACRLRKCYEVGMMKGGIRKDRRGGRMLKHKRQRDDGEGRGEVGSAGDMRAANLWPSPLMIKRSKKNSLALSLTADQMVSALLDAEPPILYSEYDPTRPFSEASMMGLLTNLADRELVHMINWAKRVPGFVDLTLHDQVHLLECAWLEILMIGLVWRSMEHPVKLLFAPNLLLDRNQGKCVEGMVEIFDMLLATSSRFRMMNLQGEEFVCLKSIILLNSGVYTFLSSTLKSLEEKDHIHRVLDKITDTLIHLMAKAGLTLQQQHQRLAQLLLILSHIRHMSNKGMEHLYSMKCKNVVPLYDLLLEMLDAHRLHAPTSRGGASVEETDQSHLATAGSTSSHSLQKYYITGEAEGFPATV
C-79 (Homo sapiens, UniProt P03372, E203W/H216G/Q214A), UniProt P03372, with tags, fused parts or gaps E203W/Q214A/H216G: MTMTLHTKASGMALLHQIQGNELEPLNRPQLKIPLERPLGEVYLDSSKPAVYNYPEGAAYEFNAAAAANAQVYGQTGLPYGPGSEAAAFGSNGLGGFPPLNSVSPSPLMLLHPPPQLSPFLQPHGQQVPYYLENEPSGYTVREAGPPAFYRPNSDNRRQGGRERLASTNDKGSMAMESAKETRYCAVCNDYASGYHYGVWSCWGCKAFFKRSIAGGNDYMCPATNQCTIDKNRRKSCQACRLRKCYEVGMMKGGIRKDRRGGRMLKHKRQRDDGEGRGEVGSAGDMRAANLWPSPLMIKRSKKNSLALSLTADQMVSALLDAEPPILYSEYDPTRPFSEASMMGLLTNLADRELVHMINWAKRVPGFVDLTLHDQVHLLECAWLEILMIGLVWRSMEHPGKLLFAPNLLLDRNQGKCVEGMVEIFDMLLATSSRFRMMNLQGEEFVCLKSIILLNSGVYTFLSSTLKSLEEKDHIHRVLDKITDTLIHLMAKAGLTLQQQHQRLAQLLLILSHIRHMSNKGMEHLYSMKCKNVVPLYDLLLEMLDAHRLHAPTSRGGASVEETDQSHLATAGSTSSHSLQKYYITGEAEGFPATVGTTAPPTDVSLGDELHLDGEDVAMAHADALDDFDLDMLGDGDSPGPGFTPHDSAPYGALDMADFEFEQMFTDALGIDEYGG

4-hydroxytamoxifen [OHT] was tested, and the “fold induction by OHT” value [1] was 13.8 fold, the “fold induction by OHT” value [2] was “greater than 80 fold” and the “fold induction by OHT” value [3] was “greater than 80 fold”. For the same substance, the “fold induction by OHT” value [4] was “less than three”.
